According to patent US10682419B2, “Prodrugs of peptide epoxy ketone protease inhibitors” (Onyx Therapeutics, Inc., priority 2012, dated 2020):

What was measured:
c20s = c20s (Homo sapiens, UniProt P20618+P28074); test: Purified PI, IC50 against c20s; assay type: biochemical; details: read-out: Purified PI IC50 Slope (nM) c20s; slope method; * = did not converge
i20s = i20s (Homo sapiens, UniProt P20618+P28062); test: Purified PI, IC50 against i20s; assay type: biochemical; details: read-out: Purified PI IC50 Slope (nM) i20s; slope method; * = did not converge

In the case of `CC(C)C[C@H](NC(=O)[C@H](CCc1ccccc1)NC(=O)CN1CCOCC1)C(=O)N[C@@H](Cc1ccccc1)C(=O)N[C@@H](CC(C)C)C(=O)[C@](C)(O)COS(C)(=O)=O`, the IC50 (c20s) is reported as 73.7 nM and the IC50 (i20s) is reported as 316 nM.
